Reference: ChEMBL document CHEMBL5528042, “Identification of Novel, Selective Ataxia-Telangiectasia Mutated Kinase Inhibitors with the Ability to Penetrate the Blood-Brain Barrier: The Discovery of AZD1390” (J Med Chem, 2024)

Tests used:
[1] = target: DNA-dependent protein kinase catalytic subunit (Homo sapiens, UniProt P78527); assay: Inhibition of DNA-PK (unknown origin)
[2] = target: Serine/threonine-protein kinase mTOR (Homo sapiens, UniProt P42345); assay: Inhibition of mTOR in human MDA-MB-468 cells incubated for 2.5 hrs by Alexa Fluor 488 staining based fluorescence analysis; type: cell-based

`CN(C)CCCOc1ccc(-c2ccc3ncc4c(c3c2)n(C2CCOCC2)c(=O)n4C)cn1` was tested, and the pIC50 [1] was 5.3 and the IC50 [2] was 1260 nM.
